Earlier results as cited in patent publication US12404348B2, “Bifunctional chimeric molecules for labeling of kinases with target binding moieties and methods of use thereof” (The Brigham and Women's Hospital, Inc., priority 2021, dated 2025).
Like-named read-outs stand apart in the source and are kept apart here.

Test system: phCRKL

## CC(=O)NC1=NN(c2ccc(Cl)c(Cl)c2)CC1C (centres unmarked) [Compound 45]
40 min
  Fold Increase phCRKL Vs Total Crk-1. (normalised): 1x
180 min
  Fold Increase phCRKL Vs Total Crk-1. (normalised): 5x
